Data: patent publication US20240226232A9, “PROTEIN-BASED THERAPIES FOR OCULAR CONDITIONS” (The Regents of the University of Colorado, A Body Corporate, priority 2021, published 2024)

Experiments:
[1] = system: Human retinal endothelial cells (HRECs); assay: Peptain-1 level in HRECs after treatment with cytokine mixture and peptide, Western blot; type: cell-based; details: 200 μg/mL peptide for three hours, then CM 48 hours
Method: Human retinal endothelial cells (“HRECs”) were treated for three hours with 200 μg/mL of either peptain-1 or a scrambled control peptide in serum-free media. The sequence of the first scrambled control peptide was […] (SEQ ID NO: 4), and the sequence of the second scrambled control peptide was […] (SEQ ID NO: 5). All test cells were then treated with a combination of pro-inflammatory cytokines (IFN-γ at 50 U/mL+TNF-α at 20 ng/mL+IL-1β at 20 ng/mL) for 48 hours.
Cell lysates were prepared using 1×RIPA buffer containing a protease inhibitor cocktail. Protein concentrations of the cell lysates were measured using the BCA method, and 25 μg of protein were used for immunoblotting. To measure HREC apoptosis, the cells were immunostained for active (cleaved) caspase-3, specifically, which is a marker for apoptosis. β-actin antibody staining was used as a control for measuring levels of a housekeeping protein and for calculating protein density compared to caspase-3 levels. The Western blot membrane treated with cleaved-caspase-3 antibody was eventually stripped and probed for peptain-1 antibody as well.

[2] = system: HRECs; assay: Penetration of P1 and P1-CPP into HRECs, anti-P1 Western blot; type: cell-based, human; details: 20-hour incubation
Method: A seventh experiment was conducted to determine whether peptain-1 (P1) levels in HRECs were greater after incubating the cells for 20 hours with P1 conjugated to a CPP (P1-CPP) relative to a 20-hour incubation with P1 only.
HREC lysates were prepared using 1×RIPA buffer containing a protease inhibitor cocktail. Protein concentrations of the cell lysates were measured using the BCA method, and 25 μg of protein were used for immunoblotting. P1 levels in cultured HRECs were measured using an anti-P1 antibody after an incubation period. β-actin antibody staining was used as a control for measuring levels of a housekeeping protein and for calculating P1/β-actin density levels.

Sequence: DRFSVNLDVKHFSPEELKVKV [peptain-1]
- density ratio of peptain-1 to β-actin [1]: ~2.25
- level of P1 in cells (density of P1 to β-actin) [2]: greater than in the control cells
